This is an account of results in PMC4775225, “Bromodomain inhibition of the transcriptional coactivators CBP/EP300 as a therapeutic strategy to target the IRF4 network in multiple myeloma” (eLife, 2016).

The chains behind the UniProt entries cited, without tags or fusion partners. Residues count along the entry.
UniProt Q92793, 1085-1192 limits assumed: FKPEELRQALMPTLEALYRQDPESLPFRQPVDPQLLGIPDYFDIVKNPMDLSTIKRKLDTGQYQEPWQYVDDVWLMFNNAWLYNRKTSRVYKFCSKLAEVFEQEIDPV

In this test the target is CBP bromodomain (Homo sapiens, UniProt Q92793). As to the kind of experiment: biochemical. The settings on record: read-out: DTm.

In the case of `COc1ccc(CCc2nc3cc(-c4c(C)noc4C)ccc3n2C[C@H](C)N2CCOCC2)cc1Cl` [SGC-CBP30], the ΔTm at 20 µM was found to be 7.42 °C.
